Tests used:
D1 receptors = target: T1, D1 receptors (Rattus norvegicus, UniProt P18901); experiment: D1 receptor binding in rat striatum, [125I]-SCH-23982; conditions: radioligand [125I]-SCH-23982
T1 construct: from tissue; host or cells: rat striatum

Amino acid sequences for entries named in this document (tags omitted).
UniProt P18901, whole entry: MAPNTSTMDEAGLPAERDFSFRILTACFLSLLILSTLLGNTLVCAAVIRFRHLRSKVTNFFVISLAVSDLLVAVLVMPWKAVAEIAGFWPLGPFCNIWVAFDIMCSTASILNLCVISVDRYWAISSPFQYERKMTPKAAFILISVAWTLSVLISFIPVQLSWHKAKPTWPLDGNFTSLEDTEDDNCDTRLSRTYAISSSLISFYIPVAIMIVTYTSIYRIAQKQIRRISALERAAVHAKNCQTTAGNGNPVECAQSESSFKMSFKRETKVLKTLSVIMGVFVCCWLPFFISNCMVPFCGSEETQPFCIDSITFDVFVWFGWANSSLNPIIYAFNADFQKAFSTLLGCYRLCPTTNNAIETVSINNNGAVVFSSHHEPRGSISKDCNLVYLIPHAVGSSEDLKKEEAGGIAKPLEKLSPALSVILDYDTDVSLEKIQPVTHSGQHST
UniProt P61169, whole entry: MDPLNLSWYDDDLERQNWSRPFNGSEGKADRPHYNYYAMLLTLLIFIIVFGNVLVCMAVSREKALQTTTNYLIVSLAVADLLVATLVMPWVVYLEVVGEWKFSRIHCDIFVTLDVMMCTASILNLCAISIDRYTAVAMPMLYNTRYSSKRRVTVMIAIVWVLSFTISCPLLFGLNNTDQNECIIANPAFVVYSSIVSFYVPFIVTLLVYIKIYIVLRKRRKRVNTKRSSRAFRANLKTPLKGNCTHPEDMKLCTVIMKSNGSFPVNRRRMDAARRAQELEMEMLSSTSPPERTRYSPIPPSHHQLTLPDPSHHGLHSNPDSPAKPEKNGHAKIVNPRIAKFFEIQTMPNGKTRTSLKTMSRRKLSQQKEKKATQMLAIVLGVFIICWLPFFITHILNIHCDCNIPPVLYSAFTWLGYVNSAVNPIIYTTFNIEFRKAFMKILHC

D2 receptors = D2 receptors (Rattus norvegicus, UniProt P61169); experiment: biochemical

Row | Ki (D1 receptors) | Ki (D2 receptors) | SMILES
1 | 0.034 µM | 0.05 µM | Oc1ccc2c(c1O)Cc1cccc3c1C2CNC3 (racemic) [(+/−)-Dinapsoline, (±)-8,9-Dihydroxy-2,3,7,11b-tetrahydro-1H-napth[1,2,3-de]isoquinoline]
2 | 0.048 µM | 0.043 µM | Oc1ccc2c(c1O)Cc1cccc3c1[C@@H]2CNC3 [(+)-Dinapsoline, R-(+)-8,9-Dihydroxy-2,3,7,11b-tetrahydro-1H-napth[1,2,3-de]isoquinoline]
3 | 4.55 µM | 0.589 µM | Oc1ccc2c(c1O)Cc1cccc3c1[C@H]2CNC3 [(−)-Dinapsoline]
